These are literature values, as cited in US8809354B2, “3-amino-2-(4-nitrophenyl)-4-(3H)-quinazolinone or derivatives thereof for treating or preventing antiviral infections” (priority 2011, dated 2014).

The structures appear in SMILES notation.

This data set concerns HCV. Conditions: patients; cited from earlier work.

In the case of `NC(=O)c1ncn([C@@H]2O[C@H](CO)[C@@H](O)[C@H]2O)n1` [Ribavirin, 1-β-D-ribofuranosyl-1-1,2,4-triazole-3-carboxamide], the Toxicity entry was “known to induce anemia”.
